Experiment: In vitro penetration across isolated human skin in modified Franz cells
Description: Penetration rates of HPPs and their parent drugs through human skin were measured in vitro by modified Franz cells. A Franz cell had two chambers, the top sample chamber and the bottom receiving chamber. The human skin tissue (360-400 μm thick) that separated the top and the receiving chambers was isolated from the anterior or posterior thigh areas.
A test compound (2 mL, 10% in 0.2 M phosphate buffer, pH 7.4) was added to the sample chamber of a Franz cell. The receiving chamber contained 10 ml of 0.2 M phosphate buffer which was stirred at 600 rpm. The amount of the tested compound penetrating the skin was determined by high-performance liquid chromatography (HPLC) method.

## 6-(5-methyl-3-phenyl-2-isoxazoline-4-carboxamido)penicillinic acid 4-piperidineethyl ester hydrochloride
pH 7.4
  In vitro Penetration Rate (apparent flux), HPPs: 0.77 ± 0.08 mg/cm^2/h

## (2S,5R)-3,3-dimethyl-7-oxo-4-thia-1-azabicyclo[3.2.0]heptane-2-carboxylic acid 4,4-dioxide N,N-diethylaminoethyl ester•HCl salt [sulbactam-DEE]
Table 1b, isolated human skin, Franz cells, 10% in 0.2 M phosphate buffer pH 7.4, n=5
  In vitro Penetration Rate (apparent flux), HPPs of beta-lactamases inhibitors: 0.35 ± 0.03 mg/cm^2/h

## penicillin V [reference compound]
  apparent flux value: less than 1 μg/cm^2/h
pH 7.4
  In vitro Penetration Rate (apparent flux), Parent compounds: <0.001 mg/cm^2/h
